Laboratory results reported in patent US20060004002A1 (priority 2004, published 2006).

Protein sequences, listed by entry. Tags and fused reporters are not part of them.
UniProt P12931, whole entry: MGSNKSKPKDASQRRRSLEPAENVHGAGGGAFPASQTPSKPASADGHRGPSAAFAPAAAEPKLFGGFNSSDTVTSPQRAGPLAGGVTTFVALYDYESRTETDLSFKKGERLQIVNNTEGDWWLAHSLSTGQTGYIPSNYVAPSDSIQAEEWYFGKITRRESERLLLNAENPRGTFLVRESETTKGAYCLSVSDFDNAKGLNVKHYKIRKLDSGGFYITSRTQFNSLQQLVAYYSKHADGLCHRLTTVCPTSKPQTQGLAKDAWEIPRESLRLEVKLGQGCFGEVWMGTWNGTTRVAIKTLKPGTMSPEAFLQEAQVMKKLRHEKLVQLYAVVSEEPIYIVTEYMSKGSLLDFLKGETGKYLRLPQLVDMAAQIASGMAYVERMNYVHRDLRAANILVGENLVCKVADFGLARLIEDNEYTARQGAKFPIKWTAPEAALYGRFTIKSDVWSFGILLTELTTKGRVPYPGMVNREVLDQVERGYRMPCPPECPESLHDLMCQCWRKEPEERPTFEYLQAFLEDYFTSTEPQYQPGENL

Target: Recombinant human Src (Homo sapiens, UniProt P12931)
Experiment: Src tyrosine kinase activity assay with poly E4Y and 32P-ATP
Details: read-out: IC50 Value Src, NI = no inhibition
Experimental: Recombinant human Src was expressed using the baculovirus-insect cell system and purified as published (Budde et al., 1993 and 2000). Recombinant Csk and the FGF receptor (FGFr) were expressed as […] fusion proteins using the pGEX expression vector and E. coli, and purified as described (Sun & Budde, 1995).
The tyrosine kinase activity of Src, Csk and FGFr was determined using poly E4Y and ^32P-ATP. Briefly, enzymes were assayed in a reaction mixture […] consisting of 0.15 M EPPS-NaOH (pH 8.0) with 6 mM MgCl2, 0.2 mM γ^32P-ATP (0.2-0.4 mCi/μmol), 10% glycerol, 0.1% Triton X-100, and poly E4Y. Poly E4Y is a synthetic peptide whose phosphorylation is measured in this assay by the addition of the radioactively labeled phosphate from the ATP (Budde et al., 1995). For screening assays, 50 μg/ml poly E4Y was used, and for Ki determinations variable concentrations (0, 20, 30, 75, and 150 μg/ml) of poly E4Y were used. When ATP was varied (0, 50, 100 and 250 μM), poly E4Y was kept constant at 150 μg/ml.

SMILES | IC50 [nM]
CCOc1ccccc1-c1sc2c(NN=Cc3cccs3)ncnc2c1C#N | 4.1
CCOc1ccccc1-c1sc2c(NN=Cc3ccc(F)c(Cl)c3)ncnc2c1C#N | 27
